The values that follow come from patent US9174937B2, “Crystal form of glycopyrronium chloride” (dated 2015).

Data set [1] in a line: Hygroscopicity in the solid state.
A short description of data set [2]: Investigation of the effect of milling (ball milling, XRPD comparison). Conditions: Retsch MM 200 grinder, 30 Hz, XRPD overlappable with reference.

Regarding “[(cyclopentylhydroxyphenylacetyl)oxy]-1,1-dimethylpyrrolidinium chloride”, in data set [1], the hygroscopicity result is given as “hygroscopic”. Moreover, in data set [2], the “degree of crystallinity after milling (XRPD pattern of ground sample vs reference pattern)” value was “substantially unchanged”.
